Among the data in US20250368649A1, “TETRAHYDROPYRIDOPYRIMIDINE PAN-KRAS INHIBITORS” (Mirati Therapeutics, Inc., priority 2022, published 2025) are IC50 values, retold here.

Amino acid sequences for entries named in this document (tags omitted). A change or cut given only in a name is not applied to a line headed by its entry.
UniProt P01116: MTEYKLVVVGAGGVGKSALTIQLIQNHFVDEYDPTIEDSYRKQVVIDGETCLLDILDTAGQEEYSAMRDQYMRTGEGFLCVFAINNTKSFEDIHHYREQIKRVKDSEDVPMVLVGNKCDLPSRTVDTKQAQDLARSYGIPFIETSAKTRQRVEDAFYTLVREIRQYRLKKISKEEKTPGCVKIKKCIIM

Holding throughout (test): biochemical
The target in one experiment is KRas G12R (Homo sapiens, UniProt P01116, G12R). The settings on record: Binding to KRas (IC50 nM) G12R, TR-FRET displacement. In general terms: In TR-FRET formats the signal depends on donor and acceptor labels being close together.
The target in another experiment is KRas G12D (Homo sapiens, UniProt P01116, G12D). The settings on record: Binding to KRas (IC50 nM) G12D, TR-FRET displacement.
In another experiment the target is KRas G12V (Homo sapiens, UniProt P01116, G12V). The settings on record: Binding to KRas (IC50 nM) G12V, TR-FRET displacement.

Usually IC50 stands for the concentration that gives 50% inhibition. Turning to `CCc1c(F)ccc2cc(O)cc(N3CCc4c(nc(OC[C@@]56CCCN5C[C@H](F)C6)nc4N4CCCn5nc(C(=O)N6C7CC6CN(C)C7)cc5C4)C3)c12` [Example 271, (5-(7-(8-ethyl-7-fluoro-3-hydroxynaphthalen-1-yl)-2-(((2R,7aS)-2-fluorohexahydro-1H-pyrrolizin-7a-yl)methoxy)-5,6,7,8-tetrahydropyrido[3,4-d]pyrimidin-4-yl)-5,6,7,8-tetrahydro-4H-pyrazolo[1,5-a][1,4]diazepin-2-yl)(3-methyl-3,6-diazabicyclo[3.1.1]heptan-6-yl)methanone], the half-maximal inhibitory concentration (IC50) at KRas G12R, at KRas G12D and on KRas G12V was < 2 nM in each case.

Turning to `CCc1c(F)ccc2cc(O)cc(N3CCc4c(nc(OC[C@@]56CCCN5C[C@H](F)C6)nc4N4CCCn5nc(N(C)C(=O)N(C)C)cc5C4)C3)c12` [Example 272, 1-(5-(7-(8-ethyl-7-fluoro-3-hydroxynaphthalen-1-yl)-2-(((2R,7aS)-2-fluorohexahydro-1H-pyrrolizin-7a-yl)methoxy)-5,6,7,8-tetrahydropyrido[3,4-d]pyrimidin-4-yl)-5,6,7,8-tetrahydro-4H-pyrazolo[1,5-a][1,4]diazepin-2-yl)-1,3,3-trimethylurea], the IC50 was determined as 15 nM on KRas G12R, 7 nM on KRas G12D and 12 nM on KRas G12V.

Regarding `CCc1c(F)ccc2cc(O)cc(N3CCc4c(nc(OC[C@@]56CCCN5C[C@H](F)C6)nc4N4CCCn5nc(C(=O)N6CC7CNCC7C6)cc5C4)C3)c12` (stereo partly drawn) [Example 273, (5-(7-(8-ethyl-7-fluoro-3-hydroxynaphthalen-1-yl)-2-(((2R,7aS)-2-fluorohexahydro-1H-pyrrolizin-7a-yl)methoxy)-5,6,7,8-tetrahydropyrido[3,4-d]pyrimidin-4-yl)-5,6,7,8-tetrahydro-4H-pyrazolo[1,5-a][1,4]diazepin-2-yl)(hexahydropyrrolo[3,4-c]pyrrol-2(1H)-yl)methanone], the IC50 on KRas G12R, at KRas G12D and at KRas G12V was < 2 nM throughout.

As to `CCc1c(F)ccc2cc(O)cc(N3CCc4c(nc(OC[C@@]56CCCN5C[C@H](F)C6)nc4N4CCCn5nc(C(=O)N6CCC7(CCCCN7)C6)cc5C4)C3)c12` (stereo partly drawn) [Example 275, (5-(7-(8-ethyl-7-fluoro-3-hydroxynaphthalen-1-yl)-2(((2R,7as)-2-flurohexahydro-1H-pyrrolizin-7a-yl)methoxy)-5,6,7,8-tetrahydropyrido[3,4-d]pyrimidin-4yl)-5,6,7,8-tetrahydro-4H-pyrazolo[1,5-a][1,4]diazepin-2-yl)(2,6-diazaspiro[4.5]decan-2yl)methanone], the half-inhibitory concentration (IC50) on KRas G12R, on KRas G12D and at KRas G12V was < 2 nM each time.

As for `CCc1c(F)ccc2cc(O)cc(N3CCc4c(nc(OC[C@@]56CCCN5C[C@H](F)C6)nc4N4CCCn5nc(C(=O)N6CCC7(CCCN7)C6)cc5C4)C3)c12` (stereo partly drawn) [Example 276, (5-(7-(8-ethyl-7-fluoro-3-hydroxynaphthalen-1-yl)-2-(((2R,7aS)-2-fluorohexahydro-1H-pyrrolizin-7a-yl)methoxy)-5,6,7,8-tetrahydropyrido[3,4-d]pyrimidin-4-yl)-5,6,7,8-tetrahydro-4H-pyrazolo[1,5-a][1,4]diazepin-2-yl)(1,7-diazaspiro[4.4]nonan-7-yl)methanone], the 50% inhibitory concentration (IC50) on KRas G12R, at KRas G12D and on KRas G12V was < 2 nM in each case.

On to `CCc1c(F)ccc2cc(O)cc(N3CCc4c(nc(OC[C@@]56CCCN5C[C@H](F)C6)nc4N4CCCn5nc(CC(=O)NC)cc5C4)C3)c12` [Example 298, 2-(5-(7-(8-ethyl-7-fluoro-3-hydroxynaphthalen-1-yl)-2-(((2R,7aS)-2-fluorohexahydro-1H-pyrrolizin-7a-yl)methoxy)-5,6,7,8-tetrahydropyrido[3,4-d]pyrimidin-4-yl)-5,6,7,8-tetrahydro-4H-pyrazolo[1,5-a][1,4]diazepin-2-yl)-N-methylacetamide], for which the half-inhibitory concentration (IC50) came to 5 nM at KRas G12R, 3 nM on KRas G12D and 4 nM at KRas G12V.

With `CCc1c(F)ccc2cc(O)cc(N3CCc4c(nc(OC[C@@]56CCCN5C[C@H](F)C6)nc4N4CCCn5nc(CNS(C)(=O)=O)cc5C4)C3)c12` [Example 305, N-((5-(7-(8-ethyl-7-fluoro-3-hydroxynaphthalen-1-yl)-2-(((2R,7aS)-2-fluorohexahydro-1H-pyrrolizin-7a-yl)methoxy)-5,6,7,8-tetrahydropyrido[3,4-d]pyrimidin-4-yl)-5,6,7,8-tetrahydro-4H-pyrazolo[1,5-a][1,4]diazepin-2-yl)methyl)methanesulfonamide], the IC50 is 5 nM on KRas G12R, 3 nM on KRas G12D and 5 nM at KRas G12V.

For `CCc1c(F)ccc2cc(O)cc(N3CCc4c(nc(OC[C@@]56CCCN5C[C@H](F)C6)nc4N4CCCn5nc(C(=O)N6CC7CCC6C7)cc5C4)C3)c12` (stereo partly drawn) [Example 307, 2-azabicyclo[2.2.1]heptan-2-yl(5-(7-(8-ethyl-7-fluoro-3-hydroxynaphthalen-1-yl)-2-(((2R,7aS)-2-fluorohexahydro-1H-pyrrolizin-7a-yl)methoxy)-5,6,7,8-tetrahydropyrido[3,4-d]pyrimidin-4-yl)-5,6,7,8-tetrahydro-4H-pyrazolo[1,5-a][1,4]diazepin-2-yl)methanone], the half-inhibitory concentration (IC50) at KRas G12R, on KRas G12D and at KRas G12V was < 2 nM each time.

For the molecule `CCc1c(F)ccc2cc(O)cc(N3CCc4c(nc(OC[C@@]56CCCN5C[C@H](F)C6)nc4N4CCCn5nc(C(N)=O)cc5C4)C3)c12` [Example 308, 5-(7-(8-ethyl-7-fluoro-3-hydroxynaphthalen-1-yl)-2-(((2R,7aS)-2-fluorohexahydro-1H-pyrrolizin-7a-yl)methoxy)-5,6,7,8-tetrahydropyrido[3,4-d]pyrimidin-4-yl)-5,6,7,8-tetrahydro-4H-pyrazolo[1,5-a][1,4]diazepine-2-carboxamide], the IC50 at KRas G12R, at KRas G12D and on KRas G12V was < 2 nM throughout.

For `CCc1c(F)ccc2cc(O)cc(N3CCc4c(nc(OC[C@@]56CCCN5C[C@H](F)C6)nc4N4CCCn5nc(CN(C)C(=O)NC)cc5C4)C3)c12` [Example 309, 1-((5-(7-(8-ethyl-7-fluoro-3-hydroxynaphthalen-1-yl)-2-(((2R,7aS)-2-fluorohexahydro-1H-pyrrolizin-7a-yl)methoxy)-5,6,7,8-tetrahydropyrido[3,4-d]pyrimidin-4-yl)-5,6,7,8-tetrahydro-4H-pyrazolo[1,5-a][1,4]diazepin-2-yl)methyl)-1,3-dimethylurea], the results for the IC50 on KRas G12R, at KRas G12D and at KRas G12V were 7 nM, 4 nM and 8 nM, respectively.

Turning to `CCc1c(F)ccc2cc(O)cc(N3CCc4c(nc(OC[C@@]56CCCN5C[C@H](F)C6)nc4N4CCCn5nc(C(=O)N6CC7CC6CCO7)cc5C4)C3)c12` (stereo partly drawn) [Example 322, 2-oxa-6-azabicyclo[3.2.1]octan-6-yl(5-(7-(8-ethyl-7-fluoro-3-hydroxynaphthalen-1-yl)-2-(((2R,7aS)-2-fluorohexahydro-1H-pyrrolizin-7a-yl)methoxy)-5,6,7,8-tetrahydropyrido[3,4-d]pyrimidin-4-yl)-5,6,7,8-tetrahydro-4H-pyrazolo[1,5-a][1,4]diazepin-2-yl)methanone], the 50% inhibitory concentration (IC50) at KRas G12R, at KRas G12D and at KRas G12V was < 2 nM in each case.
